For 2 molecules, IC50 and inhibition results are on record in ChEMBL document CHEMBL4118021, “Studies of TAK1-centered polypharmacology with novel covalent TAK1 inhibitors” (Bioorg Med Chem, 2017).

As usually defined, the IC50 is the concentration that gives 50% inhibition.

Experiment [1] addresses T1, Mitogen-activated protein kinase kinase kinase 7 (Homo sapiens, UniProt O43318).
T1 sequence (O43318 whole entry): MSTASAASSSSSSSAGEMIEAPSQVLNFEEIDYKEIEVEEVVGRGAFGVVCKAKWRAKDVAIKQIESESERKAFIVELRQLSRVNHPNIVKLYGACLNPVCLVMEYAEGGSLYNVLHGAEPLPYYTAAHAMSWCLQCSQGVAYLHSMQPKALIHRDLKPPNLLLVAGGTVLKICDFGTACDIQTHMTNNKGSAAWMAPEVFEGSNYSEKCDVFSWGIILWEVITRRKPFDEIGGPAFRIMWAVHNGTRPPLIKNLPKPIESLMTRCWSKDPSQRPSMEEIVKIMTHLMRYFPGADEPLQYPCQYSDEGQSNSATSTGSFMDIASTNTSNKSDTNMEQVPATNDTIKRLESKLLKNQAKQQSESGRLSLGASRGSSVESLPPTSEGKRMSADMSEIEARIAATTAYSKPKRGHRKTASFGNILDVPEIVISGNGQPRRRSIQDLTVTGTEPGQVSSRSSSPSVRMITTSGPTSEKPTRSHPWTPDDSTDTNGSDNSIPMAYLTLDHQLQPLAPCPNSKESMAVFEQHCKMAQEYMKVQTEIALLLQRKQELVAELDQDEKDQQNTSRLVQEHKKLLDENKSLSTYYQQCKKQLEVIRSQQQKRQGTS
Nature of the experiment: Inhibition of TAK1 (unknown origin) by LanthaScreen assay.

In experiment [2] the target is T2, Mitogen-activated protein kinase kinase kinase 7 (Homo sapiens) (UniProt O43318).
T2 sequence (whole entry): T1 sequence (O43318 whole entry)
The experiment can be described thus: Inhibition of TAK1 in RA patient-derived synovial fibroblasts assessed as inhibition of IL-1alpha-induced cytokine secretion at 3 uM preincubated for 3 hrs followed by IL-1alpha stimulation measured after 18 hrs by sandwich immunoassay. A digest of the protocol: (§1)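 Primary RA synovial fibroblasts (donor RA2159) seeded 1000 cells/well and grown ~24 h at 37 °C, 5% CO2. Starved overnight in basal medium, then ~4 h in basal medium with 0.1% BSA. Two adjacent wells pooled per replicate, in biological duplicate. Supernatants diluted 1:3 and run on Luminex 27-plex/21-plex sandwich immunoassays for 48 analytes, with spiked-ligand and mock-supernatant background controls.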

Experiment [3] deals with T2, Mitogen-activated protein kinase kinase kinase 7 (Homo sapiens). To be noted: NCI-H358, 1 uM.
The target is the same in experiment [4]. Nature of the experiment: Inhibition of TAK1 in RA patient-derived synovial fibroblasts assessed as inhibition of TNFalpha-induced cytokine secretion at 3 uM preincubated for 3 hrs followed by TNFalpha stimulation measured after 18 hrs by sandwich immunoassay. The method, boiled down:
as §1

Experiment [5] has the same target. The experiment can be described thus: Inhibition of TAK1 in RA patient-derived synovial fibroblasts assessed as inhibition of poly(I:C)-induced cytokine secretion at 3 uM preincubated for 3 hrs followed by poly(I:C) stimulation measured after 18 hrs by sandwich immunoassay. A digest of the protocol: as §1

Active and inactive are the calls of the source. No cut-off for these calls is given here.

As to `COc1cc(O)c2c(c1)/C=C/C[C@H](O)[C@H](O)C(=O)/C=C\C[C@H](C)OC2=O`, the IC50 in experiment [1] came out at 5.6 nM.
`CCN1CCN(Cc2ccc(NC(=O)c3ccc(C)c(Oc4ccnc5[nH]ccc45)c3)cc2C(F)(F)F)CC1`: the inhibition result in experiment [2], in experiment [3], in experiment [4] and in experiment [5] was “Active” throughout.
